Patent US12528818B2, “Compositions and methods for inhibition of RAS” (Leidos Biomedical Research, Inc., priority 2021, dated 2026)

Columns and labels:
[1] = target: GppNHp-loaded KRAS4b (amino acids 1-169) G12C/C118S protein (Homo sapiens, UniProt P01116, C118S/G12C); assay: Covalent cysteine 12 modification by MALDI-TOF MS, GppNHp-loaded KRAS G12C; type: biochemical; conditions: 15 minutes reaction time, compound 95 or later using 1 μM proteins
[2] = target: T1, GTP-loaded KRAS4b (amino acids 1-169) G12C/C118S protein (Homo sapiens, UniProt P01116, C118S/G12C); assay: Covalent cysteine 12 modification by MALDI-TOF MS, GTP-loaded KRAS G12C; type: biochemical; conditions: 15 minutes reaction time, compound 95 or later using 1 μM proteins
T1 construct: KRAS4b (amino acids 1-169) G12C/C118S protein; made in house

[3] = target: GDP-loaded KRAS4b (amino acids 1-169) G12C/C118S protein (Homo sapiens, UniProt P01116, C118S/G12C); assay: Covalent cysteine 12 modification by MALDI-TOF MS, GDP-loaded KRAS G12C; type: biochemical; conditions: 15 minutes reaction time, compound 95 or later using 1 μM proteins
[4] = target: Avi-KRAS G12C (1-169) GppNHp/RAF1 RBD-3xFLAG (52-151) (Homo sapiens, UniProt P01116, G12C); assay: biochemical; conditions: Raf1-GppNHp-KRAS G12C disruption, Raf1 RBD-KRAS G12C-GppNHp disruption assay IC50

Row | Structure (SMILES) | GppNHp-KRAS G12C percent of modification [1] | GTP-KRAS G12C percent of modification [2] | GDP-KRAS G12C percent of modification [3] | pIC50 [4]
1 | C=CC(=O)N1C[C@@H](F)[C@@H](N(C)c2nc(OC[C@@]34CCCN3C[C@H](F)C4)nc3cc(-c4ccc(F)c5sc(N)c(C#N)c45)c(C(F)(F)F)cc23)C1 [Compound 315, 4-(4-(((3S,4R)-1-acryloyl-4-fluoropyrrolidin-3-yl)(methyl)amino)-2-(((2R,7aS)-2-fluorotetrahydro-1H-pyrrolizin-7a(5H)-yl)methoxy)-6-(trifluoromethyl)quinazolin-7-yl)-2-amino-7-fluorobenzo[b]thiophene-3-carbonitrile] | A (percent of modification ≥70%) | A (percent of modification ≥70%) | A (percent of modification ≥70%) | > 6.30
2 | C=CC(=O)N1C[C@@H](F)[C@@H](N(C)c2nc(OC[C@@]34CCCN3C[C@H](F)C4)nc3c(F)c(-c4ccc(F)c5sc(N)c(C#N)c45)c(C(F)(F)F)cc23)C1 [Compound 316] | A (percent of modification ≥70%) | A (percent of modification ≥70%) | A (percent of modification ≥70%) | > 6.30
3 | C=CC(=O)N1C[C@@H](F)[C@@H](N(C)c2nc(OC[C@@]34CCCN3C[C@H](F)C4)nc3cc(-c4ccc(F)c5sc(N)nc45)c(C(F)(F)F)cc23)C1 [Compound 317] | A (percent of modification ≥70%) | A (percent of modification ≥70%) | A (percent of modification ≥70%) | > 6.30
4 | C=CC(=O)N1CCN(c2nc(OC[C@@]34CCCN3C[C@H](F)C4)nc3c(F)c(-c4ccc(F)c5sc(N)c(C#N)c45)c(C(F)(F)F)cc23)C[C@H]1C [Compound 318] | A (percent of modification ≥70%) | B (50≤percent of modification <70%) | A (percent of modification ≥70%) | > 6.30
5 | C=CC(=O)N1C[C@H](N(C)c2nc(OC[C@@]34CCCN3C[C@H](F)C4)nc3c(F)c(-c4ccc(F)c5sc(N)c(C#N)c45)ccc23)C[C@H]1C [Compound 319] | A (percent of modification ≥70%) | A (percent of modification ≥70%) | A (percent of modification ≥70%) | > 6.30
6 | C=CC(=O)N1C[C@H](F)[C@@H](N(C)c2nc(OC[C@@]34CCCN3C[C@H](F)C4)nc3cc(-c4ccc(F)c5sc(N)c(C#N)c45)c(C(F)(F)F)cc23)C1 [Compound 320] | A (percent of modification ≥70%) | A (percent of modification ≥70%) | A (percent of modification ≥70%) | > 6.30
7 | C=CC(=O)N1[C@@H](C)CN(c2nc(OC[C@@]34CCCN3C[C@H](F)C4)nc3c(F)c(-c4ccc(F)c5sc(N)c(C#N)c45)c(C(F)(F)F)cc23)C[C@@H]1C [Compound 321] | A (percent of modification ≥70%) | B (50≤percent of modification <70%) | A (percent of modification ≥70%) | > 6.30
8 | C=CC(=O)N1CCN(c2nc(OC[C@@]34CCCN3C[C@H](F)C4)nc3c(F)c(-c4ccc(F)c5sc(N)c(C#N)c45)c(C(F)(F)F)cc23)CC12CC2 [Compound 322] | C (10%≤percent of modification <50%) | C (10%≤percent of modification <50%) | B (50≤percent of modification <70%) | > 6.30
9 | C=CC(=O)N1C[C@H](C)N(c2nc(OC[C@@]34CCCN3C[C@H](F)C4)nc3c(F)c(-c4ccc(F)c5sc(N)c(C#N)c45)c(C#N)cc23)C[C@H]1C [Compound 324, 4-((2S,5R)-4-acryloyl-2,5-dimethylpiperazin-1-yl)-7-(2-amino-3-cyano-7-fluorobenzo[b]thiophen-4-yl)-8-fluoro-2-(((2R,7aS)-2-fluorotetrahydro-1H-pyrrolizin-7a(5H)-yl)methoxy)quinazoline-6-carbonitrile] | A (percent of modification ≥70%) | C (10%≤percent of modification <50%) | A (percent of modification ≥70%) | > 6.30
10 | C=CC(=O)N1CC[C@@H](N(C)c2nc(OC[C@@]34CCCN3C[C@H](F)C4)nc3c(F)c(-c4ccc(F)c5sc(N)c(C#N)c45)c(C#N)cc23)C1 [Compound 325] | A (percent of modification ≥70%) | A (percent of modification ≥70%) | A (percent of modification ≥70%) | > 6.30
11 | C=CC(=O)N1C[C@H](C)N(c2nc(OC[C@@]34CCCN3C[C@H](F)C4)nc3c(F)c(-c4ccc(F)c5sc(N)nc45)c(C#N)cc23)C[C@H]1C [Compound 326] | D (percent of modification <10%) | D (percent of modification <10%) | A (percent of modification ≥70%) | 5.30 to 6.30
12 | C=CC(=O)N1C[C@H](F)[C@@H](N(C)c2nc(OC[C@@]34CCCN3C[C@H](F)C4)nc3c(F)c(-c4ccc(F)c5sc(N)c(C#N)c45)c(C(F)(F)F)cc23)C1 [Compound 327] | A (percent of modification ≥70%) | A (percent of modification ≥70%) | A (percent of modification ≥70%) | > 6.30
13 | C=CC(=O)N1C[C@H](C)N(c2nc(N3CC(N4CC(O)C4)C3)nc3c(F)c(-c4ccc(F)c5sc(N)c(C#N)c45)c(C(F)(F)F)cc23)C[C@H]1C [Compound 328] | C (10%≤percent of modification <50%) | D (percent of modification <10%) | C (10%≤percent of modification <50%) | > 6.30
14 | C=CC(=O)N1CCN(c2nc(OC[C@@]34CCCN3C[C@H](F)C4)nc3c(F)c(-c4ccc(F)c5sc(N)c(C#N)c45)c(C(F)(F)F)cc23)C[C@@H]1C [Compound 329] | A (percent of modification ≥70%) | B (50≤percent of modification <70%) | A (percent of modification ≥70%) | > 6.30
15 | C=CC(=O)N1[C@H](C)CN(c2nc(OC[C@@]34CCCN3C[C@H](F)C4)nc3c(F)c(-c4ccc(F)c5sc(N)c(C#N)c45)c(C(F)(F)F)cc23)C[C@H]1C [Compound 330] | D (percent of modification <10%) | D (percent of modification <10%) | C (10%≤percent of modification <50%) | 5.30 to 6.30
16 | C=CC(=O)N1C[C@H](C)N(c2nc(N3CC(N4CC(OC)C4)C3)nc3c(F)c(-c4ccc(F)c5sc(N)c(C#N)c45)c(C(F)(F)F)cc23)C[C@H]1C [Compound 331] | C (10%≤percent of modification <50%) | D (percent of modification <10%) | B (50≤percent of modification <70%) | > 6.30
17 | C=CC(=O)N1C[C@H](C)N(c2nc(OC[C@@]34CCCN3C[C@H](F)C4)nc3c(F)c(-c4ccc(F)c5sc(N)c(C#N)c45)c(F)cc23)C[C@H]1C [Compound 333] | A (percent of modification ≥70%) | C (10%≤percent of modification <50%) | A (percent of modification ≥70%) | > 6.30
18 | C=CC(=O)N1C[C@H](F)[C@@H](N(C)c2nc(OC[C@@]34CCCN3C[C@H](F)C4)nc3cc(-c4ccc(F)c5sc(N)nc45)c(C(F)(F)F)cc23)C1 [Compound 335] | A (percent of modification ≥70%) | A (percent of modification ≥70%) | A (percent of modification ≥70%) | > 6.30
19 | C=CC(=O)N1CC[C@H](N(C)c2nc(OC[C@@]34CCCN3C[C@H](F)C4)nc3c(F)c(-c4ccc(F)c5sc(N)c(C#N)c45)c(F)cc23)C1 [Compound 336] | D (percent of modification <10%) | D (percent of modification <10%) | D (percent of modification <10%) | 5.30 to 6.30
20 | C=CC(=O)N1CC[C@@H](N(C)c2nc(OC[C@@]34CCCN3C[C@H](F)C4)nc3c(F)c(-c4ccc(F)c5sc(N)c(C#N)c45)c(C(F)(F)F)cc23)[C@H]1CF [Compound 337] | B (50≤percent of modification <70%) | C (10%≤percent of modification <50%) | B (50≤percent of modification <70%) | > 6.30
21 | C=CC(=O)N1C[C@H](C)N(c2nc(N3CC(N4CC5(CC5)C4)C3)nc3c(F)c(-c4ccc(F)c5sc(N)c(C#N)c45)c(C(F)(F)F)cc23)C[C@H]1C [Compound 338, 4-(2-(3-(5-azaspiro[2.3]hexan-5-yl)azetidin-1-yl)-4-((2S,5R)-4-acryloyl-2,5-dimethylpiperazin-1-yl)-8-fluoro-6-(trifluoromethyl)quinazolin-7-yl)-2-amino-7-fluorobenzo[b]thiophene-3-carbonitrile] | C (10%≤percent of modification <50%) | D (percent of modification <10%) | C (10%≤percent of modification <50%) | > 6.30

pIC50: −log10 of the molar value.
